# Laboratory results from PMC3523752 (Journal of chemical information and modeling, 2012).
# Sequences of proteins named here, by UniProt entry; tags and fusion partners are left off. Residues count along the entry.
# UniProt P56817, 46-501: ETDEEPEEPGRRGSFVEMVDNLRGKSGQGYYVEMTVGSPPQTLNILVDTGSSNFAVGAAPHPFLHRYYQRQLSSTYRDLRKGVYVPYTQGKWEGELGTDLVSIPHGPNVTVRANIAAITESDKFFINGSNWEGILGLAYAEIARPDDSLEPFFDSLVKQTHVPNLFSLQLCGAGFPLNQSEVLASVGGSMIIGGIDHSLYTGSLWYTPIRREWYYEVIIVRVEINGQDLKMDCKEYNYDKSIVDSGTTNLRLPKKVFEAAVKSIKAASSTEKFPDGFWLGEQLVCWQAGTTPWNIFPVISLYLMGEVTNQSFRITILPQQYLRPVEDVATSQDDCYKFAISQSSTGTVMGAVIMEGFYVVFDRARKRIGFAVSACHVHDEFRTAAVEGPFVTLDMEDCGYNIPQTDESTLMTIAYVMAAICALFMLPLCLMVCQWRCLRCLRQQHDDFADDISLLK
# Key:
# BACE-1 [1] = biological target: T1, BACE-1 (Homo sapiens, UniProt P56817); assay: BACE-1 FRET inhibition assay, method a; assay type: biochemical; conditions: standard inhibitors
# BACE-1 [2] = biological target: T1, BACE-1; assay: BACE-1 FRET inhibition assay, method b; assay type: biochemical; conditions: standard inhibitors
substance,measurement,setting,value
OM99-2,potency (BACE-1 inhibition),BACE-1 [1],nanomolar potencies
same,potency (BACE-1 inhibition),BACE-1 [2],nanomolar potencies
